{
  "source": "patent US9686971B2",
  "about": "“Methods for testing anti-thrombotic agents” (The Trustees of Columbia University in the City of New York, priority 2006, dated 2017)",
  "tested_on": "human platelets",
  "experiment": "Tail bleeding assay, human platelet-induced hemostasis in homozygous VWF^1326R>H mice",
  "format": "in vivo, mouse",
  "settings": "PLAVIX 50 mg/kg oral day before and 2 h prior, ReoPro 0.25 mg/kg iv bolus then 0.125 μg/kg/min, 5 min after human platelets",
  "procedure": "This assay provides an indirect measure of the ability of platelets and VWF to support hemostasis by interacting with the injured vessel wall. It also indirectly determines the function of multiple receptors and ligands on platelets that are required to form a hemostatic plug. […] It is performed by immersing the severed tip (10 mm) of the animal's tail in isotonic saline at 37° C. and monitoring the length of time required for bleeding to cease. Homozygous mutant mice will be infused with an equal volume of either saline or purified human platelets. Platelet specific antibodies or drugs will be administered as described above and their ability to prolong bleeding time evaluated. All experiments will be stopped at 10 min by cauterizing the tail (51).\nTail cuts were performed 5 min after completion of the infusion of platelets. PLAVIX and ReoPro® were obtained from the research pharmacy at CUMC. For studies involving PLAVIX, animals received a 50 mg/kg oral dose of the drug the day before and 2 h prior to the administration of human platelets.",
  "data": [
    {"smiles": "COC(=O)[C@H](c1ccccc1Cl)N1CCc2sccc2C1", "note": "[clopidogrel]", "values": [
      {"measurement": "human platelet-induced hemostatic clot / plug formation (words)", "result": "completely disrupted"},
      {"measurement": "human platelet-induced hemostatic clot / plug formation (words)", "setting": "listed as Clopidogrel", "result": "unable to produce a hemostatic clot"}
    ]}
  ]
}
